One assay has as its system U266. The experiment in a line: Combination with BT062 in cell lines (Chou and Talalay median effect analysis). The assay is classed as cell-based, human. Conditions: U266 cells. The procedure: (§1) Combination studies in xenograph mouse models were preceded by studies in cell lines. […] Here, IC50 values for the cytotoxic effects for each drug and each cell line are calculated, and then IC50 ratios for each drug pair. The cells were then exposed to dilution series of either these drug mixtures, or the drugs alone. Experimental data were analyzed using the CompuSyn software (ComboSyn, Inc., Paramus, N.J.). Combination Indexes (CI) for each independent experiment were calculated and reported separately. In the analysis, CI less than 1, equal to 1 and more than 1 indicates synergy, additivity and antagonism, respectively. According to the classification of T. C.

A further assay has as its system RPMI 8226. Described as above. Conditions: RPMI 8226 cells. The assay is classed as cell-based. The procedure:
as §1

Regarding `O=C1CCC(N2C(=O)c3ccccc3C2=O)C(=O)N1` (stereo not drawn) [Thalidomide, α-(N-phthalimido) glutarimide], the “estimate of synergy, drug combined with BT062” value in the assay with U266 is “Antagonistic”.

Consider `CC(C)C[C@H](NC(=O)[C@H](Cc1ccccc1)NC(=O)c1cnccn1)B(O)O` [Velcade, reference compound], for which the “estimate of synergy, drug combined with BT062” value is given as “Antagonistic” in the assay with U266 and “Additive” in the assay on RPMI 8226.

The values are drawn from patent publication US9289509B2, “Uses of immunoconjugates targeting CD138” (Biotest AG, priority 2009, dated 2016).
